# Results taken from ChEMBL document CHEMBL1649546, “Extended-spectrum properties of CMY-30, a Val211Gly mutant of CMY-2 cephalosporinase” (Antimicrob Agents Chemother, 2009).
# How the values were obtained:
# Escherichia coli [1] = assay: Ratio of Kcat to Km for Escherichia coli MC4100 Beta-Lactamase CMY-30 harboring Val211?Gly211 mutation
# Procedure, shortened: (§1)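 Enzyme source was E. coli MC4100 carrying high-copy plasmids pB-cmy30 or pB-cmy2. Enzyme was released by sonication in 20 mM Tris, pH 7.4, then purified by Q- and S-Sepharose ion exchange to >95% purity by SDS-PAGE. Values are means of four independent measurements. For some β-lactams, Km was obtained as Ki using cephalothin as reporter substrate.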
# Escherichia coli [2] = assay: Activity of Escherichia coli MC4100 Beta-Lactamase CMY-2
# Procedure, shortened: (§2)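 CMY-2 purified from E. coli MC4100 carrying high-copy plasmid pB-cmy2. Cells in 20 mM Tris pH 7.4 sonicated, then Q- and S-Sepharose ion exchange, >95% pure by SDS-PAGE. Kinetic constants are means of four independent measurements. For some β-lactams Km was determined as Ki with cephalothin as reporter substrate.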
# Escherichia coli [3] = assay: Ratio of Kcat to Km for Escherichia coli MC4100 Beta-Lactamase CMY-2; procedure, shortened: as §2
# Escherichia coli [4] = assay: Activity of Escherichia coli MC4100 Beta-Lactamase CMY-30 harboring Val211?Gly211 mutation; procedure, shortened: as §1
smiles,measurement,setting,value
O=C(Cc1cccs1)N[C@@H]1C(=O)N2C(C(=O)O)=C(/C=C/c3ccc([N+](=O)[O-])cc3[N+](=O)[O-])CS[C@H]12,kcat/Km,Escherichia coli [1],1.7e+07 M⁻¹ s⁻¹
same,Km,Escherichia coli [2],21 µM
same,kcat,Escherichia coli [2],867 s⁻¹
same,kcat/Km,Escherichia coli [3],4.1e+07 M⁻¹ s⁻¹
same,kcat,Escherichia coli [4],333 s⁻¹
